“And” between values parts separate entries of the source, which are not always exact repeats. Equal values may be shown once. The entries are a selection whose mix differs from that of the whole data set. The source made the active and inactive calls. Cut-off read from the data, not from the text of the source: active = inhibition above about 50%; inactive = the rest.

The chains behind the UniProt entries cited, without tags or fusion partners. Where a name states a change or a piece, a line headed by the entry shows the natural chain unless it says otherwise.
UniProt P51452: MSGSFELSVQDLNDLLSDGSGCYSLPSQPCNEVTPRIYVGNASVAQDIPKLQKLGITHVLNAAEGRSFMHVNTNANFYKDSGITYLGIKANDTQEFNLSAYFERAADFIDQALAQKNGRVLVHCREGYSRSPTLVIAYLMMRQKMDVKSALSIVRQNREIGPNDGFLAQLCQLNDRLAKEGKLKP

For orientation: inhibition means the drop in the measured response relative to a control, in per cent.

This test deals with Dual specificity protein phosphatase 3 (Homo sapiens) (UniProt P51452). Put plainly: inhibition of human DUSP3 activity – biochemical, absorbance, uHTS, primary screen (AID 1654). Particulars: recombinant VHR phosphatase, pNPP absorbance; at 13.3 µM; hits give high values.
With `O=[N+]([O-])c1ccc(O)c(/C=N/Nc2ccc([N+](=O)[O-])cc2[N+](=O)[O-])c1`, the inhibition was inactive: -17.9%.
The same measure for `O=[N+]([O-])c1ncn(CCn2cnc([N+](=O)[O-])n2)n1`: inactive: 28.8%; for `CC(=O)NC(SC(=S)N(C)C)C(Cl)(Cl)Cl` (centres undefined): inactive: -5.4%.
The figure for `O=C(OC1CN2CCC1CC2)c1cccc(Cl)c1` (centres undefined) is inactive: -1%; for `Nc1ccc([As](=O)(O)c2ccc([N+](=O)[O-])cc2)cc1` it is inactive: 29.8%.
With `C(Cc1nn[nH]n1)Cc1nn[nH]n1`, the inhibition was inactive: 13.5%.
The same measure for `O=C(Nc1cc([As](=O)(O)O)ccc1O)c1ccccc1`: inactive: 36%.
The figure for `O=[N+]([O-])c1ncn(CCn2ncnc2[N+](=O)[O-])n1` is inactive: 14.4%.
The same measure for `CC(C)(C)C(=O)NC(Sc1ccncn1)C(Cl)(Cl)Cl` (centres undefined): inactive: -3.6%; for `O=C(O)CNc1ccc([As](=O)(O)O)cc1`: inactive: 20.7%; for `O=[N+]([O-])c1cccc(NC2=NCC(CBr)S2)c1` (centres undefined): inactive: 21.1%.
Take `COc1ccc(C2=NCC(CBr)S2)cc1` (centres undefined): the inhibition is inactive: 8.3%.
The figure for `CCc1nc2c(n1)c1c(non1O)c1c2no[n+]1[O-]` is inactive: -5.9%.
The figure for `O=[N+]([O-])c1cc([N+](=O)[O-])c(CCNc2ccccc2)c([N+](=O)[O-])c1` is inactive: -5.3%.
As to `Cc1ccc(NP(=O)(Oc2ccccc2)Oc2ccccc2)nc1`, the inhibition is inactive: 11.9%.
As for `O=[N+]([O-])c1cccc2n[nH]nc12`, the inhibition is inactive: -2.4%.
The figure for `CC(=O)N1C2C3N(C(C)=O)C1C1N(C(C)=O)C(C(N1C(C)=O)N3C(C)=O)N2C(C)=O` is inactive: 20.5%; for `CCN(/C(=N/P(=O)(N1CCOCC1)N1CCOCC1)N1CCOCC1)c1ccc(OC)cc1` it is inactive: 4.8%.
The same measure for `C[N+]1=C2C=CC=CC=C2SC12C([N+](=O)[O-])=CC([N+](=O)[O-])=C[C-]2[N+](=O)[O-]` (centres undefined): inactive: 20.5%; for `Nc1ccc([As](=O)(O)c2ccc(N)cc2)cc1`: inactive: 35.5%; for `CC1CCN(C(=O)Oc2c(Cl)cc(Cl)c3cccnc23)CC1`: inactive: 31.1%.
The same measure for `CN(C)C(=O)OCCc1n(C)cc[n+]1C`: inactive: -2.7%; for `CC(C)=N/N=C(\N)N[N+](=O)[O-]`: inactive: -7.7%.
As for `Cc1ccc(N/C(=N/P(=O)(N2CCOCC2)N2CCOCC2)N2CCOCC2)cc1`, the inhibition was inactive: 19%.
For the compound `NC(=O)c1cc([N+](=O)[O-])cc([N+](=O)[O-])c1N`, the inhibition was inactive: 4.8%.
The same measure for `Clc1ccc(Cl)c(NC2=NCC(CBr)S2)c1` (centres undefined): inactive: -6.2%.
The same measure for `CN1CCCC(OC(=O)C(c2ccccc2)c2ccccc2)C1` (centres undefined): inactive: -4.6%.
The same measure for `Cc1ccc(OP(=O)(Nc2nccs2)Oc2ccc(C)cc2)cc1`: inactive: 21.3%; for `COc1ccccc1OP(=O)(Nc1ccc(C)cn1)Oc1ccccc1OC`: inactive: 19.8%.
For the compound `Cc1c2non([O-])c-2c(C)[n+](=O)[n+]1[O-]`, the inhibition is inactive: 1.5%.
The figure for `O=C(NC(Sc1ccncn1)C(Cl)(Cl)Cl)c1ccccc1` (centres undefined) is inactive: -4.8%.
The figure for `Oc1ccccc1CNc1ccccn1` is inactive: 24.3%; for `CC(C)CC(=O)NC(Sc1ccc(Cl)cc1)C(Cl)(Cl)Cl` (centres undefined) it is inactive: 31.1%; for `Nc1cc(N)c2nonc2c1[N+](=O)[O-]` it is inactive: 16.5%.
The same measure for `O=P(Nc1nc2ccc(Cl)cc2s1)(c1ccccc1)c1ccccc1`: inactive: 20.1%.
`O=C(O)c1ccccc1[As](=O)(O)O`: the inhibition was inactive: 26.9%.
The same measure for `CC(=O)Nc1ccc([As](=O)(O)O)cc1`: inactive: 22.8%; for `Cc1ccc(NP(=O)(Oc2ccccc2F)Oc2ccccc2F)nc1`: inactive: 31%.
Consider `CCOP(=O)(Nc1ccccc1)OCC`, for which the inhibition was inactive: 31.8% and inactive: 7.7%.
Turning to `Cc1cc(SC(NC(=O)c2ccc(F)cc2)C(Cl)(Cl)Cl)ncn1` (centres undefined), the inhibition was inactive: 17.6%.
The figure for `Nc1cccc2ccc([As](=O)(O)O)cc12` is inactive: 13.1%; for `CCN(N=Nc1nonc1N)c1nonc1N` it is inactive: 16.9%; for `C[As](=O)(O)c1cccc(C(=O)O)c1` it is inactive: 26.9%.
The figure for `O=[As](O)(c1ccc(O)cc1)c1ccccc1O` is inactive: 23.9%; for `Cc1ccc(OP(=O)(Nc2ccc([N+](=O)[O-])cn2)Oc2ccc(C)cc2)cc1` it is inactive: 31.5%.
The same measure for `Cc1ccc2nc3c(c(C)c2c1)CC(C(Cl)Cl)S3` (centres undefined): inactive: 8.3%.
Turning to `ClCCSc1nnc(-c2cccnc2)o1`, the inhibition is inactive: -13.2%.
Take `CC(C)c1ccc(OP(=O)(Nc2ccccn2)Oc2ccccc2F)cc1` (centres undefined): the inhibition is inactive: 32.9%.
In the case of `O=[N+]([O-])c1cc([N+](=O)[O-])c(-c2ccn[nH]2)s1`, the inhibition was inactive: -8.4%.
The same measure for `CCN(CC)C(=S)SC(NC=O)C(Cl)(Cl)Cl` (centres undefined): inactive: 23.5%; for `CC(C)NC(=O)NP(=O)(Oc1ccccc1)Oc1ccccc1`: inactive: 12.9%; for `Cc1c2c(nc3ccccc13)SC(C(Cl)Cl)C2` (centres undefined): inactive: -3.9%.
The figure for `Cc1cc(=O)[nH]c(N[N+](=O)[O-])n1` is inactive: -7%.
The figure for `O=C(OC1CN2CCC1CC2)C12CC3CC(CC(C3)C1)C2` (centres undefined) is inactive: 11.3%; for `COc1cc(I)ccc1[As](=O)(O)O` it is inactive: 4.9%; for `COc1ccc(N/C(=N/P(=O)(N2CCOCC2)N2CCOCC2)N2CCOCC2)cc1` it is inactive: 16%.
Take `COP1(=S)c2c(C)nn(CCC#N)c2N=C(c2ccc(F)cc2)N1C` (centres undefined): the inhibition was inactive: 20.7%.
The figure for `O=C(Nc1ccncc1[N+](=O)[O-])c1ccc([N+](=O)[O-])cc1[N+](=O)[O-]` is inactive: 13%.
With `O=C(COc1ccccc1)OC1CN2CCC1CC2` (centres undefined), the inhibition was inactive: 3.6%.
The figure for `O=C(OC1CN2CCC1CC2)c1cccc([N+](=O)[O-])c1` (centres undefined) is inactive: 12.5%; for `CCOC(=O)c1ccc(NC(=O)C(C)(CCl)SC)cc1` (centres undefined) it is inactive: 36.8%; for `CCC(C)N(CC(C)C)C(=S)SC(NC(C)=O)C(Cl)(Cl)Cl` (centres undefined) it is inactive: 8.9%.
The figure for `CCOC(=O)Nc1ccc([As](=O)(O)O)c(O)c1` is inactive: 4.9%; for `Cc1cc(SC(NC(=O)c2ccccc2)C(Cl)(Cl)Cl)nc(C(C)C)n1` (centres undefined) it is active: 55.4%; for `CCCCOc1ccc(C(=O)NCC2(N3CCCCC3)CCCCC2)cc1OC` it is inactive: 16%.
As for `CCOC(=O)Nc1cccc([As](=O)(O)O)c1`, the inhibition was inactive: 41.5%.
Consider `O=P(Nc1ccccn1)(c1cccc2ccccc12)c1cccc2ccccc12`, for which the inhibition was inactive: 26.4%.
Regarding `Cc1cc(SC(NC=O)C(Cl)(Cl)Cl)ncn1` (centres undefined), the inhibition is inactive: -0.2%.
The figure for `O=[N+]([O-])c1ccc(Nc2ccc(Oc3ccc([N+](=O)[O-])cc3[N+](=O)[O-])cc2)c([N+](=O)[O-])c1` is inactive: 24.4%; for `CC1CCC(C(C)C)C(OP(=O)(Nc2ccccn2)c2ccccc2)C1` (centres undefined) it is inactive: 14.4%.
The same measure for `Cc1ccc(C(=O)OC2CN3CCC2CC3)cc1` (centres undefined): inactive: -17.8%.
The figure for `Cc1nn(-c2ccccc2)c2c1P(=O)(N1CCOCC1)N(C)C(c1ccccc1)=N2` (centres undefined) is inactive: 9.4%.
With `CN(C)C1(CNC(=O)c2ccc(S(C)(=O)=O)cc2)CCCCC1`, the inhibition is inactive: 12.9%.
Consider `O=C(/C=C/c1ccccc1)OC1CN2CCC1CC2` (centres undefined), for which the inhibition is inactive: 6.1%.
For `O=P1(Nc2ncccn2)COc2ccccc2OC1`, the inhibition is inactive: 25.5%.
The same measure for `Nc1cccc([As](=O)(O)c2ccccc2)c1`: inactive: 8.7%.
For `O=P1(Nc2ccc(Br)cn2)COc2ccccc2OC1`, the inhibition is inactive: -0.8%.
In the case of `O=[As](O)(c1cccs1)c1cccs1`, the inhibition is inactive: -3.9%.
The figure for `Cc1ccc(OCC(=O)OC2CN3CCC2CC3)cc1` (centres undefined) is inactive: -9%; for `CCOP(=O)(NC(=NC(C)c1ccccc1)NC(C)c1ccccc1)OCC` (centres undefined) it is inactive: 18.1%.
The same measure for `O=P1(Nc2ccccn2)COc2ccccc2OC1`: inactive: 2.9%.
The same measure for `CCC1=CC2Cc3nc4ccc(Cl)cc4c(N)c3C(C1)C2` (centres undefined): inactive: 8.1%; for `CCOP(=O)(Nc1ccc(C)cn1)OCC`: inactive: 27.1%; for `CC(C)(C)C(=O)NC(Sc1ncccn1)C(Cl)(Cl)Cl` (centres undefined): inactive: 13.3%.
Regarding `Clc1n[nH]nc1-c1nn[nH][15n]1`, the inhibition is inactive: 29.1%.
The figure for `CC(C)/C=N\N=C(\N)N[N+](=O)[O-]` is inactive: 15.2%.
The same measure for `CN(C(=O)Cc1ccc(Cl)c(Cl)c1)[C@@H]1CCCC[C@H]1N1CCCC1`: inactive: 30.1%; for `O=[As](O)(c1ccccc1Br)c1ccccc1Br`: inactive: 5.9%.
The figure for `O=C(OC1CN2CCC1CC2)c1ccc(Cl)cc1` (centres undefined) is inactive: -10.7%.
As to `CS(=O)(=O)c1ccc(Cl)c(NC(=O)COC(=O)C(O)(c2ccccc2)c2ccccc2)c1`, the inhibition is inactive: 18.8%.
The figure for `COc1cc(C(=O)NCC2(N3CCOCC3)CCCCC2)cc(Cl)c1OC(C)C` is inactive: 6%.
The figure for `O=[As](O)(O)c1cccnc1` is inactive: 12.5%.
The same measure for `O=[As](O)(c1cccc(O)c1)c1cccc(O)c1`: inactive: 5.1%; for `Cc1cccc(OCC(=O)OC2CN3CCC2CC3)c1` (centres undefined): inactive: -9.6%; for `Nc1cccc2c([As](=O)(O)O)cccc12`: inactive: 78.4%.
For the compound `Cc1ccc(NCCc2c([N+](=O)[O-])cc([N+](=O)[O-])cc2[N+](=O)[O-])cc1`, the inhibition is inactive: 20.8%.
The same measure for `CCCOP(=S)(Nc1nc(N)cc(=O)[nH]1)OCCC`: inactive: 11.2%.
The same measure for `CCOP(=O)(Nc1cccc2ccccc12)OCC`: inactive: -11.3%.
The same measure for `COc1cc(C2NCCC3(OCCO3)C2(C)C)cc(OC)c1OC` (centres undefined): inactive: -9.9%.
With `O=P(Nc1nccs1)(c1ccccc1)c1nc2ccccc2s1` (centres undefined), the inhibition is inactive: 8.3%.
The figure for `O=P(Nc1nccs1)(Oc1ccccc1)Oc1ccccc1` is inactive: 12%.
The figure for `CCOP1(=S)c2c(C)nn(CCC#N)c2N=C(c2ccccc2F)N1C` (centres undefined) is inactive: 16.9%.
Take `CS(=O)(=O)c1cc([N+](=O)[O-])c2no[n+]([O-])c2c1`: the inhibition is inactive: 1.2%.
The figure for `Nc1ccccc1[As](=O)(O)c1ccccc1` is inactive: 12.5%.
Turning to `O=C(O)COc1ccc([As](=O)(O)O)cc1[N+](=O)[O-]`, the inhibition was inactive: 13.1%.
The figure for `NC(=O)Nc1ccc([As](=O)(O)O)cc1` is inactive: 14.9%; for `CCOP1(=S)c2c(C)nn(CCC#N)c2N=C(c2ccc(F)cc2)N1C` (centres undefined) it is inactive: 7.2%.
Turning to `CN(C(=O)Cc1ccccc1)[C@@H]1CC[C@]2(CCCO2)C[C@H]1N1CCCC1`, the inhibition is inactive: -8.9%.
The figure for `O=[N+]([O-])c1ccc2c(c1)nnn2O` is inactive: 35.1%.

The values above are taken from PubChem BioAssay AID1654 (Sanford-Burnham Center for Chemical Genomics, 2009).
